Measurements as given in patent EP3970494A1 (priority 2020, dated 2022).

Assays:
Phakopsora pachyrhizi [1] = test: Protective control of soybean rust on soybeans, inoculation 2 days after treatment (PHAKPA P2); format: in vivo; details: soybean seedlings inoculated 2 days after treatment, strain with F129L in cytochrome b, % diseased leaf area, untreated controls usually higher than 85 %; for PHAKPA Disease level (%) P2 at 4 ppm: 4 ppm spray; for PHAKPA Disease level (%) P2 at 16 ppm: 16 ppm spray
Phakopsora pachyrhizi [2] = test: Protective control of soybean rust on soybeans, inoculation six days after treatment (PHAKPA P6); format: in vivo; details: soybean seedlings inoculated six days after treatment, strain with F129L in cytochrome b, % diseased leaf area, untreated controls usually higher than 85 %; for PHAKPA Disease level (%) P6 at 4 ppm: 4 ppm spray; for PHAKPA Disease level (%) P6 at 16 ppm: 16 ppm spray

Row | SMILES | PHAKPA Disease level (%) P2 at 4 ppm (Phakopsora pachyrhizi [1]) | PHAKPA Disease level (%) P2 at 16 ppm (Phakopsora pachyrhizi [1]) | PHAKPA Disease level (%) P6 at 4 ppm (Phakopsora pachyrhizi [2]) | PHAKPA Disease level (%) P6 at 16 ppm (Phakopsora pachyrhizi [2])
1 | CNC(=O)/C(=N/OC)c1cccc(C)c1CO/N=C(\C)c1cccc(C(F)(F)F)n1 [Example 2] | 67% | 17% | 59% | 27%
2 | CO/N=C(/C(=O)OC)c1cccc(C)c1CO/N=C(\C)c1cc(C(F)(F)F)ccn1 [Example 4, Methyl (2E)-2-methoxyimino-2-[3-methyl-2-[[(E)-1-[4-(trifluoromethyl)-2-pyridyl]ethylideneamino]oxymethyl]phenyl]acetate] | 3% | 0% | 4% | 0%
3 | CNC(=O)/C(=N/OC)c1cccc(C)c1CO/N=C(\C)c1cc(C(F)(F)F)ccn1 [Example 5, (2E)-2-methoxyimino-N-methyl-2-[3-methyl-2-[[(E)-1-[4-(trifluoromethyl)-2-pyridyl]-ethylideneamino]oxymethyl]phenyl]acetamide] | 1% | 0% | 2% | 0%
4 | CO/N=C(/C(=O)OC)c1cccc(C)c1CO/N=C(\C)c1cccc(OC)n1 [Example 6] | 60% | 32% | 73% | 67%
5 | CO/N=C(/C(=O)OC)c1cccc(C)c1CO/N=C(\C)c1cccc(C(F)F)n1 [Example 9] | 100% | 50% | 90% | 47%
6 | CNC(=O)/C(=N/OC)c1cccc(C)c1CO/N=C(\C)c1cccc(C(F)F)n1 [Example 10] | 73% | 7% | 87% | 11%
7 | CO/N=C(/C(=O)OC)c1cccc(C)c1CO/N=C(\C)c1cc(-c2ccc(F)cc2)sn1 [Example 11, Methyl (2E)-2-[2-[[(E)-1-[5-(4-fluorophenyl)isothiazol-3-yl]ethylideneamino]oxymethyl]-3-methyl-phenyl]-2-methoxyimino-acetate] | 50% | 8% | 37% | 7%
8 | CNC(=O)/C(=N/OC)c1cccc(C)c1CO/N=C(\C)c1cc(-c2ccc(F)cc2)sn1 [Example 12, (2E)-2-[2-[[(E)-1-[5-(4-Fluorophenyl)isothiazol-3-yl]ethylideneamino]oxymethyl]-3-methyl-phenyl]-2-methoxyimino-N-methyl-acetamide] | 73% | 12% | 50% | 19%
9 | CO/N=C(/C(=O)OC)c1cccc(C(F)(F)F)c1CO/N=C(\C)c1cccc(C(F)(F)F)n1 [Example 13] | 93% | 90% | 87% | 83%
10 | CO/N=C(/C(=O)OC)c1cccc(C)c1CO/N=C(\C)c1cc(-c2ccc(F)cc2)on1 [Example 14] | 97% | 77% | 87% | 65%
11 | CNC(=O)/C(=N/OC)c1cccc(C)c1CO/N=C(\C)c1cc(-c2ccc(F)cc2)on1 [Example 15] | 53% | 4% | 63% | 13%
12 | CO/N=C(/C(=O)OC)c1cccc(C)c1CO/N=C(\C)c1cc(-c2ccc(Cl)cc2)on1 [Example 18] | 93% | 73% | 90% | 83%
13 | CO/N=C(/C(=O)OC)c1cccc(C)c1CO/N=C(\C)c1cc(-c2ccccc2)on1 [Example 21] | 87% | 15% | 90% | 17%
14 | CNC(=O)/C(=N/OC)c1cccc(C)c1CO/N=C(\C)c1cc(-c2cccc(C(F)(F)F)c2)on1 [Example 22, (2E)-2-Methoxyimino-N-methyl-2-[3-methyl-2-[[(E)-1-[5-[3-(trifluoromethyl)phenyl]-isoxazol-3-yl]ethylideneamino]oxymethyl]phenyl]acetamide] | 73% | 33% | 67% | 26%
15 | CNC(=O)/C(=N/OC)c1cccc(C)c1CO/N=C(\C)c1cc(-c2ccccc2)on1 [Example 23] | 47% | 5% | 80% | 7%
16 | CO/N=C(/C(=O)OC)c1cccc(C)c1CO/N=C(\C)c1ncccc1C(F)F [Example 24] | 87% | 33% | 93% | 53%

Row | SMILES | PHAKPA Disease level (%) P2 at 4 ppm (Phakopsora pachyrhizi [1]) | PHAKPA Disease level (%) P2 at 16 ppm (Phakopsora pachyrhizi [1]) | PHAKPA Disease level (%) P6 at 4 ppm (Phakopsora pachyrhizi [2]) | PHAKPA Disease level (%) P6 at 16 ppm (Phakopsora pachyrhizi [2])
17 | CO/N=C(/C(=O)OC)c1cccc(C)c1CO/N=C(\C)c1cc(C)ccn1 [Example 25] | 93% | 57% | 97% | 73%
18 | CO/N=C(/C(=O)OC)c1cccc(C)c1CO/N=C(\C)c1ncccc1C(F)(F)F [Example 27, Methyl (2E)-2-methoxyimino-2-[3-methyl-2-[[(E)-1-[3-(trifluoromethyl)-2-pyridyl]-ethylideneamino]oxymethyl]phenyl]acetate] | 94% | 24% | 96% | 32%
19 | CNC(=O)/C(=N/OC)c1cccc(C)c1CO/N=C(\C)c1ncccc1C(F)(F)F [Example 28, (2E)-2-methoxyimino-N-methyl-2-[3-methyl-2-[[(E)-1-[3-(trifluoromethyl)-2-pyridyl]-ethylideneamino]oxymethyl]phenyl]acetamide] | 27% | 1% | 44% | 9%
20 | CO/N=C(\C)c1ccnc(/C(C)=N/OCc2c(C)cccc2/C(=N\OC)C(=O)OC)c1 [Example 29, Methyl (2E)-2-methoxyimino-2-[2-[[(E)-1-[4-[(E)-N-methoxy-C-methyl-carbonimidoyl]-2-pyridyl]ethylideneamino]oxymethyl]-3-methyl-phenyl]acetate] | 36% | 7% | 58% | 21%
21 | CNC(=O)/C(=N/OC)c1cccc(C)c1CO/N=C(\C)c1cc(/C(C)=N/OC)ccn1 [Example 30, (2E)-2-Methoxyimino-2-[2-[[(E)-1-[4-[(E)-N-methoxy-C-methyl-carbonimidoyl]-2-pyridyl]ethylideneamino]oxymethyl]-3-methyl-phenyl]-N-methyl-acetamide] | 19% | 2% | 45% | 13%
22 | CO/N=C(\C)c1cccc(/C(C)=N/OCc2c(C)cccc2/C(=N\OC)C(=O)OC)n1 [Example 31] | 90% | 67% | 83% | 33%
23 | CNC(=O)/C(=N/OC)c1cccc(C)c1CO/N=C(\C)c1cccc(/C(C)=N/OC)n1 [Example 32] | 70% | 13% | 70% | 20%
24 | CNC(=O)/C(=N/OC)c1cccc(C)c1CO/N=C(\C)c1ncccc1C(F)F [Example 33] | 57% | 4.0% | 78% | 14%
25 | CO/N=C(/C(=O)OC)c1cccc(C)c1CO/N=C(\C)c1cc(C(F)F)ccn1 [Example 34] | 28% | 7% | 26% | 10%
26 | CO/N=C(/C(=O)OC)c1cccc(C)c1CO/N=C(\C)c1cc(-c2ccccc2)sn1 [Example 36] | 30% | 32% | 28% | 28%
27 | CNC(=O)/C(=N/OC)c1cccc(C)c1CO/N=C(\C)c1cc(C(F)F)ccn1 [Example 37] | 20% | 4% | 52% | 11%
28 | CNC(=O)/C(=N/OC)c1cccc(C)c1CO/N=C(\C)c1cc(-c2cccc(C(F)(F)F)c2)sn1 [Example 39] | 40% | 15% | 40% | 4%
29 | CNC(=O)/C(=N/OC)c1cccc(C)c1CO/N=C(\C)c1ncsc1C(F)(F)F [Example 41] | 63% | 6% | 83% | 47%
30 | CO/N=C(/C(=O)OC)c1cccc(C)c1CO/N=C(\C)c1cc(C(F)(F)F)cc(Cl)n1 [Example 42] | 60% | 28% | 57% | 30%
31 | CO/N=C(/C(=O)OC)c1cccc(C)c1CO/N=C(\C)c1ccc(Cl)c(C(F)(F)F)c1 [Example 82] |  | 20% |  | 
